# Test results reported in article PMC4917254, “Kavain, the Major Constituent of the Anxiolytic Kava Extract, Potentiates GABAA Receptors: Functional Characteristics and Molecular Mechanism” (PLoS ONE, 2016).
# Sequences of proteins named here, by UniProt entry; tags and fusion partners are left off. Residues count along the entry.
# UniProt P14867, 28-456: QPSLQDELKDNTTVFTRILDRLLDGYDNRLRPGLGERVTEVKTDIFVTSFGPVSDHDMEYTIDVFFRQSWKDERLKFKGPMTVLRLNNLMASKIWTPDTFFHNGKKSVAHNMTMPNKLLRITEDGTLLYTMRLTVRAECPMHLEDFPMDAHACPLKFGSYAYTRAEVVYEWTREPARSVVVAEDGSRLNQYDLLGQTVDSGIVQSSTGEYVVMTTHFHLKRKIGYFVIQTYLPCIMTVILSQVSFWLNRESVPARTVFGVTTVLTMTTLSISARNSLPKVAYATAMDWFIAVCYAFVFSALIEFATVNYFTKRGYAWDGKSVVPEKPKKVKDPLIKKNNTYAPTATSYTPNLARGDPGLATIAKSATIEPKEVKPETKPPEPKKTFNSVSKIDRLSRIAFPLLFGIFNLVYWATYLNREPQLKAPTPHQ
# UniProt P18507, 40-475: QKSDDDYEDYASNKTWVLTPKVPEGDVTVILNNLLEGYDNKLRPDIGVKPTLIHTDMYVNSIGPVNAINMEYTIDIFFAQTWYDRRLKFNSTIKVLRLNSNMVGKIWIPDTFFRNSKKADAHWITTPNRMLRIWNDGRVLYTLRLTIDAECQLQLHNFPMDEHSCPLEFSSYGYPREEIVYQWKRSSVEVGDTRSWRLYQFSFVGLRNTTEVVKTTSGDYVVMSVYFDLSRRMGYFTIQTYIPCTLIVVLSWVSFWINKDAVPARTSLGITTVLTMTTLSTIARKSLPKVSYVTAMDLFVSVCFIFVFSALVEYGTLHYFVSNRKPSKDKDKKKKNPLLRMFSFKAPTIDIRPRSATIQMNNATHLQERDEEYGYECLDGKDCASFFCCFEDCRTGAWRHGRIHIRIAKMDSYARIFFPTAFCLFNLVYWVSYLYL
# UniProt P47870, 25-512 limits assumed: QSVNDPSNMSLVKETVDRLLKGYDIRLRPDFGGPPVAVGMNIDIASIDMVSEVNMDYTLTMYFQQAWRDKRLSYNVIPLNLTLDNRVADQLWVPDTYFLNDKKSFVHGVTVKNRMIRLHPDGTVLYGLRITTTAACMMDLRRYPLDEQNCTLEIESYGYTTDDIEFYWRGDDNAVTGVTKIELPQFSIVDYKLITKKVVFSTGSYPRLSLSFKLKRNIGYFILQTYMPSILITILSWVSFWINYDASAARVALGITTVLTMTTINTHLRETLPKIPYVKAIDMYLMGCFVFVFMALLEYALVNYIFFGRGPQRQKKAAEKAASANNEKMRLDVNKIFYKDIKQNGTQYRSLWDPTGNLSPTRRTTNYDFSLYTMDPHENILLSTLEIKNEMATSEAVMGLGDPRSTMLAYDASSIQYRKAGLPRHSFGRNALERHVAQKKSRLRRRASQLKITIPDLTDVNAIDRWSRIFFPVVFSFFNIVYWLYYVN
# Where two headings read alike, the source gives them in different places.
# What was measured:
# [1] = cited from earlier work; for brain concentration: mice, i.p.
# [2] = Solubility limit of kavain in the recordings
# Method: Perfusates containing these chemicals were made up fresh before each application. […] All experiments were performed using at least two different batches of oocytes.
# α1β2γ2L GABAARs = target: T1, α1β2γ2L GABAARs (Homo sapiens, UniProt P14867+P18507+P47870); test: Two-electrode voltage clamp, recombinant α1β2γ2L GABAARs in Xenopus oocytes; assay type: cell-based; conditions: 300 μM kavain, paired t test p > 0.05
# T1 construct: expressed in transfected cells; host or cells: Xenopus laevis oocytes injected with mRNA (1:1:3)
# Method: The expression and functional characterisation of recombinant GABAARs in Xenopus oocytes were performed as previously described. The subunit mRNA ratios for the expression of αβγ receptors were adjusted according to the β subunit isoform in that when β2-containing receptors were expressed, a 1:1:3 ratio was used, whereas when β1- or β3-containing receptors were expressed, a 10:1:10 ratio was used to minimise the expression of homomeric β1/3 homomeric receptors. To express α4β2δ receptors, a 5:1:5 ratio was used, and the pharmacological characteristics of this receptor were as described in Hartiadi et al. (2016). The injection ratio used for the expression of α1β2 and β2γ2L receptors were 1:1 and 1:3 respectively. Approximately 2 to 10 ng of mRNA mixture was injected into each oocyte. Injected oocytes were stored in ND96 storage solution supplemented with 50 μg/mL gentamycin and tetracycline at 18°C.
# Two-electrode voltage clamp recordings were performed on oocytes 2–5 days post-injection at room temperature (20–25°C) using a GeneClamp 500B amplifier (ADInstruments, Sydney, NSW, Australia) or a Warner OC-725C Oocyte Clamp (Warner Instrument Corp, Hamden, CT, USA). […]
# Alternatively, the modulatory effect was expressed as the fold of potentiation, as shown in Eq 3.
substance,measurement,setting,value
DL-kavain,predicted brain concentration,"[1]; larger doses (300 mg/kg) of kavain, predicted by Davies et al. (1992)",300 µM
same,brain concentration,[1]; 44 mg kavain in 120 mg/kg kavalactone mixture,120 µM
same,brain concentration,"[1]; 100 mg/kg kavain alone, within minutes",up to 100 μM
same,highest soluble concentration,[2],300 µM
same,effect of kavain on EC50 and maximal efficacy of GABA,α1β2γ2L GABAARs,did not affect the EC50 and maximal efficacy of GABA
